Reference: PMC9144445, “Substrate-Based Design of Cytosolic Nucleotidase IIIB Inhibitors and Structural Insights into Inhibition Mechanism” (Pharmaceuticals, 2022)

Protein sequences, listed by entry. Tags and fused reporters are not part of them. Lines headed by an entry give the natural chain unless they say otherwise; changes in a name come on top.
UniProt Q969T7: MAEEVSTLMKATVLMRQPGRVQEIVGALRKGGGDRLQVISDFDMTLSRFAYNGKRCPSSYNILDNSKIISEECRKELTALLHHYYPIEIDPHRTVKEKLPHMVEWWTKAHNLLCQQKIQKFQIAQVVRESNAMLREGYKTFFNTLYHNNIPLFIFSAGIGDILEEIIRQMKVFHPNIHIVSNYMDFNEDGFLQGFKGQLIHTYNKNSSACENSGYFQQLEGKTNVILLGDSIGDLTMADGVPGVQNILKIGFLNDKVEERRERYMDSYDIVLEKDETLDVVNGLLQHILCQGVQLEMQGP

Columns and labels:
human cN-IIIB [1] = target: T1, human cN-IIIB (Homo sapiens, UniProt Q969T7); experiment: Hydrolysis assay: susceptibility to hydrolysis by cN-IIIB (MGP assay); type: biochemical; details: cN-IIIB 80 nM, 45 min
human cN-IIIB [2] = target: T1, human cN-IIIB; details: m7GMP 100 μM + inhibitor 100 μM, cN-IIIB 80 nM, 45 min
[3] = library I, compound 100 μM, relative to m7GMP set to 100%

Nc1nc2c(c(=O)[nH]1)[n+](Cc1ccccc1)cn2[C@@H]1O[C@H](COP(=O)([O-])F)[C@@H](O)[C@H]1O
Susceptibility to hydrolysis (%) (human cN-IIIB [1]; library II, compound 100 µM): 0.0%

C[n+]1cn([C@@H]2O[C@H](COP(=O)([O-])OP(=O)(O)F)[C@@H](O)[C@H]2O)c2nc(N)[nH]c(=O)c21
Susceptibility to hydrolysis (%) (human cN-IIIB [1]; [3]): 0.0%

Nc1nc2c(c(=O)[nH]1)[n+](Cc1ccccc1)cn2[C@@H]1O[C@H](COP(=O)([O-])OP(=O)(O)F)[C@@H](O)[C@H]1O
Susceptibility to hydrolysis (%) (human cN-IIIB [1]; library II, compound 100 µM): 0.0%

C[n+]1cn([C@@H]2O[C@H](COP(=O)([O-])F)[C@@H](O)[C@H]2O)c2nc(N)[nH]c(=O)c21
Susceptibility to hydrolysis (%) (human cN-IIIB [1]; [3]): 0.0% | Susceptibility to hydrolysis (%) (human cN-IIIB [1]; library II, compound 100 µM): 0.0% | Inhibition of cN-IIIB activity, first library (in words) (human cN-IIIB [2]): inhibited cN-IIIB to some extent
